The values that follow are results of earlier work, collected in patent publication US20140206737A1 (Beijing Zhongwei Shennong Chronic Disease Medical Research …, priority 2013, published 2014).

The conditions of the series: cited from earlier work.

Consider `Cl.Clc1cccc(Cl)c1NC1=NCCN1` [clonidine hydrochloride, 2-(2,6-Dichloroanilino)-2-imidazoline hydrochloride], for which the solubility in chloroform result (chloroform) was “very slightly soluble”. Besides, under “ether”, the solubility in ether entry is reported as “practically insoluble”. Also, the “solubility in water or ethanol” value (water or ethanol) was “soluble”.
